Binding of CDR-mutated scFvs to a peptide of the spike HR2 region

The measurements come from Li et al. 2023 (doi:10.1038/s41467-023-39022-2) through the FLAb antibody collection.

Target peptide (SARS-CoV-2 spike, HR2 region): PDVDLGDISGINAS

Parent: Ab-14, a human scFv built as VH, three GGGGS repeats, VL. Only the CDRs of the heavy chain vary.
VH: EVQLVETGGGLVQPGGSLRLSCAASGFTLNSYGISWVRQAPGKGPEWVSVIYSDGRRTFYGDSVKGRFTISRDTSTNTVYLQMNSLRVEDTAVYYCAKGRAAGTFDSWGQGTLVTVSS
VL: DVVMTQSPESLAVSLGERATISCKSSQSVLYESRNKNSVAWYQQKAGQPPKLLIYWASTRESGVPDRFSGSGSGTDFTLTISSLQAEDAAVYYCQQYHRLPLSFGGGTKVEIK

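The parent was found by panning a naive human phage display library on the peptide. Designed CDR sequences, proposed from the first random library and measured here. Their group label is 14H_En_HC (En: ensemble of fine-tuned language models; HC: hill climbing; a sequence that several methods proposed may carry one label only). Affinity was read by AlphaSeq, a pooled yeast mating assay with surface-displayed partners. The frequency of each diploid, read from paired DNA barcodes, reflects how well the two displayed proteins bind. The ratio of observed to expected reads was calibrated, replicate by replicate, on BCL2-family standards whose Kd was known from biolayer interferometry. Mating was done six times.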

Variants are written as CDR1, CDR2 and CDR3 of the heavy chain (limits as in the source). Parent: GFTLNSYGIS, VIYSDGRRTFYGDSVK, GRAAGTFDS.
Scale: log10 of Kd in nM, estimated from mating counts; low values are strong binders.
"nd" marks a missing value. The strain was present, yet no cells mated with the target were sequenced in that replicate, which points to weak or no binding.

GFDLNEYGIS | VIYADGRRTFYSDSVK | GNVGGSFDM: -0.11, -0.24, -0.15, -0.55, -0.34, -0.33 (controls 0 of 18).
GFDLNEYGIS | VIYADGRRTAYIDSVK | GETAGTFDQ: -0.08, -0.20, -0.70, -0.61, -0.27, -0.12 (controls 0 of 18).
GFTLDEYGIS | VIYADGRRTFYTDSVK | GGNAGTFDV: -0.58, -0.40, -0.59, -0.72, -0.57, -0.24 (controls 0 of 18).
GFDLNEYGIS | VIYADGRRTFYTDSVK | GEVAGTFDG: -1.95, -2.63, -2.64, -2.78, -2.04, -2.47 (controls 0 of 18).
GFDLNEYGIS | VIYADGRRTAYKDSVK | GEAAGTFDS: 0.00, -0.41, -0.47, -0.69, -0.71, -0.32 (controls 0 of 18).
GFSLDEYGIS | VIYADGKRTFYQDDVK | GNVAGTFDV: -0.06, -0.37, -0.31, -0.51, -0.50, -0.39 (controls 0 of 18).
GFDLDEYGIS | VIYADGQRTFYQDSVK | GQNAGTFDQ: -0.13, -0.14, 0.01, 0.38, -0.20, -0.18 (controls 0 of 18).
GFDLNEYGIS | VIYADGRRTFYIDSVK | GTNGGTFDV: -0.17, -0.29, -0.26, -0.53, -0.31, -0.05 (controls 1 of 18).
GFDLNEYGIS | VIYADGQRTFYADSVK | GEVAGTFVS: -0.96, -0.68, nd, 1.22, nd, nd (controls 0 of 18).
GFDLNEYGIS | VIYADGRRTFYADSVK | GEIAGTFKL: -0.53, -0.34, -0.63, -0.68, -0.54, -0.30 (controls 0 of 18).
GFNLDEYGIS | VIYADGRRTFYADSVK | GNVAGTFDS: -0.51, -0.59, -0.26, -0.76, -0.69, -0.57 (controls 0 of 18).
GFDLNEYGIS | VIYADGRRTFYADSVK | GETAGTFFS: 0.11, -0.19, -0.55, -0.65, -0.46, -0.67 (controls 0 of 18).
GFDLEDYGIS | VIYADGRRTFYADSVK | GEAAGTFDL: -1.06, -1.01, -0.87, -1.27, -0.66, 0.06 (controls 0 of 18).
GFDLNEYGIS | VIYADGRRTFYTDSVK | GANAGTFDN: -0.10, -0.54, -0.42, -0.46, -0.36, -0.26 (controls 2 of 18).
GFDLNEYGIS | VIYADGRRTFYSDSVK | GNNGGTFDI: 0.04, -0.06, -0.25, -0.09, -0.14, -0.06 (controls 0 of 18).
GFNLNEYGIS | VIYADGVRTFYADSVK | GEAAGTFDS: 0.45, -0.01, 0.05, -0.11, 0.32, 0.60 (controls 0 of 18).
GFDLNEYGIS | VIYADGRRTFYADSVK | GNTAGTFLV: -0.52, -0.48, -0.89, -0.49, -0.40, -0.68 (controls 0 of 18).
GFDLNEYGIS | VIYADGRRTAYIDSVK | GEIAGTFDE: -0.51, -0.61, -0.55, -0.50, -0.54, -0.27 (controls 0 of 18).
GFDLEDYGIS | VIYADGRRTAYADSVK | GEQAGTFDV: -0.25, 1.35, -0.95, -0.15, -0.91, 0.08 (controls 0 of 18).
GFDLNEYGIS | VIYADGLRTFYTDSVK | GEFAGTFDQ: 0.67, 1.10, 1.06, 0.23, 1.53, 1.47 (controls 0 of 18).
GFDLNEYGIS | VIYADGRRTAYADSVK | GETAGTFDS: 1.48, nd, 1.08, nd, nd, 0.54 (controls 0 of 18).
GFDLNEYGIS | VIYADGMRTFYADSVK | GQNAGTFTL: 0.60, 0.25, 0.02, nd, 0.38, 0.14 (controls 0 of 18).
GFDLNEYGIS | VIYADGKRTFYSDSVK | GEAAGTFDV: 0.06, 0.63, 0.73, 0.50, 0.28, 0.47 (controls 0 of 18).
GFDLNEYGIS | VIYADGRRTFYTDKVK | GGNAGTFDV: -0.52, -0.81, -0.94, -0.98, -0.92, -0.36 (controls 0 of 18).
GFDLNEYGIS | VIYADGKRTAYSDKVK | GNVAGTFDI: -0.46, -0.45, -0.32, -0.43, -0.65, -0.31 (controls 0 of 18).
GFDLNEYGIS | VIYADGMRTAYTDSVK | GANAGTFDQ: 0.76, 0.24, 0.32, 0.65, -0.03, -0.10 (controls 0 of 18).
GFDLDEYGIS | VIYADGMRTFYIDSVK | GEAAGTFDV: 1.11, 1.26, 0.64, 0.33, 0.77, 0.72 (controls 0 of 18).
GFNLNEYGIS | VIYADGKRTFYADSVK | GEHAGSFDI: -0.03, 0.36, -0.17, -0.96, 0.07, -0.56 (controls 0 of 18).
GFDLNEYGIS | VIYADGRRTFYTDNVK | GQNAGTFDL: -0.84, -0.57, -0.64, -0.68, -0.85, -0.63 (controls 0 of 18).
GFDLNEYGIS | VIYADGRRTFYADSVK | GTAGGTFDV: nd, 0.23, -0.15, 2.17, nd, nd (controls 0 of 18).
GFNLNEYGIS | VIYADGVRTFYADSVK | GGNAGTFDV: 0.44, 0.14, -0.14, 0.10, -0.34, -0.13 (controls 0 of 18).
GFDLDEYGIS | VIYADGRRTFYTDSVK | GNVAGTFDS: -0.11, -0.44, -0.64, -0.21, -0.74, -0.43 (controls 0 of 18).
GFNLNEYGIS | VIYADGRRTFYSDSVK | GEIGGTFDV: 0.03, 0.17, -0.07, -0.18, -0.19, -0.03 (controls 0 of 18).
GFDLNEYGIS | VIYADGRRTAYLDSVK | GELAGTFDT: 0.53, 0.34, 0.13, -0.18, 0.04, -0.02 (controls 0 of 18).
GFDLNEYGIS | VIYADGRRTFYADSVK | GKNAGTFIV: nd, nd, nd, nd, nd, nd (controls 0 of 18).
GFDLDEYGIS | VIYADGQRTFYADSVK | GEHAGTFDV: -0.07, -0.32, -0.67, -0.31, -0.50, -0.04 (controls 0 of 18).
GFDLNEYGIS | VIYADGVRTFYSDSVK | GTNAGTFDI: -0.18, -0.18, -0.54, -0.80, -0.77, -0.06 (controls 1 of 18).
GFNLNEYGIS | VIYADGKRTFYADSVK | GQVAGTFDV: -0.16, -0.16, -0.38, -0.66, -0.45, -0.20 (controls 1 of 18).
GFDLNEYGIS | VIYADGRRTAYADSVK | GTNGGTFDV: 0.69, 0.16, 0.82, 0.13, -0.17, 0.63 (controls 0 of 18).
GFDLNEYGIS | VIYADGRRTFYTDSVK | GSVAGTFDL: -0.88, -0.51, -0.40, -1.54, -0.72, -0.88 (controls 0 of 18).
GFSLDEYGIS | VIYADGMRTFYQDDVK | GNVAGTFDV: 0.18, -0.16, 0.03, -0.17, 0.12, 0.24 (controls 0 of 18).
GFDLNEYGIS | VIYADGRRTFYADSVK | GNVAGTFTQ: -0.64, -0.57, 2.22, -0.67, -0.86, -0.63 (controls 0 of 18).
GFDLNEYGIS | VIYADGMRTAYTDSVK | GNEAGTFDF: -0.03, 0.24, -0.17, -0.29, 0.04, 0.00 (controls 0 of 18).
GFDLEDYGIS | VIYADGRRTAYIDSVK | GEAAGTFDQ: -0.14, -0.41, -0.62, -0.62, -0.55, -0.21 (controls 1 of 18).

A selection of 5 entries from above:

CDR-H1,CDR-H2,CDR-H3,"replicates, log10 nM",signal with controls
GFTLDEYGIS,VIYADGRRTFYTDSVK,GGNAGTFDV,"-0.58, -0.40, -0.59, -0.72, -0.57, -0.24",0 of 18
GFDLNEYGIS,VIYADGRRTFYADSVK,GETAGTFFS,"0.11, -0.19, -0.55, -0.65, -0.46, -0.67",0 of 18
GFDLNEYGIS,VIYADGQRTFYADSVK,GEVAGTFVS,"-0.96, -0.68, nd, 1.22, nd, nd",0 of 18
GFDLDEYGIS,VIYADGQRTFYADSVK,GEHAGTFDV,"-0.07, -0.32, -0.67, -0.31, -0.50, -0.04",0 of 18
GFNLNEYGIS,VIYADGVRTFYADSVK,GGNAGTFDV,"0.44, 0.14, -0.14, 0.10, -0.34, -0.13",0 of 18

The authors averaged sequences with at least three values out of six and counted those with two or fewer as poor binders.
The parent sequence was in this pool as ten entries: three were never detected, three once, and four in most replicates, with averages from 0.34 to 2.37.
Background: pairings of all heavy chain designs with three empty control strains gave a value in 1% of cases (median 2.08, 5th percentile 0.84). Values in that range, when seen in few replicates, are hard to tell from nonspecific mating. The control count says in how many pairings with the empty strains this scFv gave a signal.
Values of this round are not directly comparable with the first-round values of the same sequences.